Test results taken from patent US9522128B2 (FUNDACION PARA LA INVESTIGACION BIOMEDICA DEL HOSPITAL …, priority 2008, dated 2016).

Tests used:
Wistar rats = assay: Extended in vivo study of cilastatin nephroprotection against acute toxic renal failure caused by cisplatin
Excerpt: A total of 28 animals were used, which were randomized into 4 groups with a sample size n=6-8 animals per group.
Throughout the period, animals were given free access to both water and feed (standard diet) in a controlled light, temperature, and humidity environment. One day before killing, animals were introduced into metabolic cages with free access to feed and water ad libitum to collect 24-hour urine, in order to quantify urine output and protein concentration.
At the time of killing, animals (previously weighed) were anesthetized in the experimental operating room with ketamine (10 mg/kg) and diazepam (4 mg/kg) and were drawn blood by cannulation of the abdominal aorta at the bifurcation level. Blood was first incubated for 30 minutes at 37° C., and then for one hour at 4° C. Subsequent centrifugation at 2000 rpm for 15 minutes at 4° C. allowed for obtaining blood serum, which was frozen at −80° C. until use. […] Kidneys were subsequently removed, decapsulated, and kept in cold saline during their handling to minimize tissue degradation. Kidneys (right and left) were weighed and were subsequently handled similarly. […]
Hemodynamic variables and serum and urine kidney function parameters (FIG. 14) were measured using a Dimension RxL autoanalyzer from Dade-Behring according to manufacturer instructions. […]

rabbits [1] = details: high doses of imipenem, without or with concomitant cilastatin; Norrby 1985; cited from earlier work
[2] = tested on: renal degradation of imipenem; details: healthy subjects; cited from earlier work
rabbits [3] = details: cilastatin alone; Toyoguchi 1997; cited from earlier work
[4] = all species (rabbit, rat, pig cells, human SPC data)
Excerpt: No data have been reported for humans. […] The resulting plot is shown in FIG. 14 (diamonds: rabbit data; triangles: rat data; blank squares: data from pig experiments; filled squares including a white point: data from the summary of product characteristics for humans).

## CC1(C)C[C@@H]1C(=O)N/C(=C\CCCCSC[C@H](N)C(=O)O)C(=O)[O-].[Na+] (relative stereo) [cilastatin, monosodium salt of [R—[R*,S*—(Z)]]-7-[(2-amino-2-carboxyethyl)thio]-2-[[(2,2-dimetylcyclopropyl)carbonyl]amino]-2-heptenoic acid]
Wistar rats; body weight balance at the end of the extended study, mean ± standard error
  Δ WEIGHT: 14.3 ± 1.5
Wistar rats; in words, cisplatin 5 mg/kg with or without cilastatin
  weight loss: clearly lower weight loss
Rabbits [1]
  tubular toxicity: this effect is prevented
[2]
  accumulation in multiple dose studies: does not accumulate
Rabbits [3]
  renal excretion of vancomycin: accelerated renal excretion of vancomycin
[4]
  administered dose up to which the dose/plasma level relationship is linear: ≤ 200 mg/kg body weight
